The values below are quoted from earlier work in patent US6994981B2, “Modulators of paraptosis and related methods” (The Buck Institute, priority 2002, dated 2006).

Sequences of proteins named here, by UniProt entry; tags and fusion partners are left off.
UniProt P14600, whole entry: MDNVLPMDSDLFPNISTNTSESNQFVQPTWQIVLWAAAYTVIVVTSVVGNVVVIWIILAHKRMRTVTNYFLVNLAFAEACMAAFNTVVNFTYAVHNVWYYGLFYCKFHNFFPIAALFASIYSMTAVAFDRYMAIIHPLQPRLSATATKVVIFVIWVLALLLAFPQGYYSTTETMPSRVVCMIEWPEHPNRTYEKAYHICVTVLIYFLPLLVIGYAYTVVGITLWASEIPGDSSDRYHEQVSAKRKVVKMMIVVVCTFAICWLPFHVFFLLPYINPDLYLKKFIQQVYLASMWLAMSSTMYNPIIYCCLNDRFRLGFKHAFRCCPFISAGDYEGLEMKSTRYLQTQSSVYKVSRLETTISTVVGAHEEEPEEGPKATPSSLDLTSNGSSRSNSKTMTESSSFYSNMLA

The target of data set [1] is neurokinin-1 receptor (NK1R) (Rattus norvegicus, UniProt P14600). The settings on record: cited from earlier work.
The test system of the next data set is paraptosis. The settings on record: cited from earlier work.

“SP: eleven amino acid neurotransmitter of the tachykinin family, ligand of NK1R”: the “affinity for NK1R” value in data set [1] was “nanomolar affinity”. Take “xiap: X-chromosome-linked inhibitor of apoptosis”: in the data set on paraptosis, the “effect of caspase inhibitors on paraptosis” value was “lack of effect”.
